Laboratory results taken from patent US20240279249A1, “Compound, Coating Composition Comprising Same, Organic Light-Emitting Device Using Same, and Manufacturing Method Therefor” (LG Chem, Ltd., priority 2021, published 2024).

Test: Solubility at 5 wt % relative to each solvent
Settings: 5 wt % relative to solvent
From the text: In a solution process organic light emitting device, when an ink solvent is selected for the process, the ink solvent needs to dissolve both a host and a dopant.

(4-isopropylphenyl) (p-tolyl)iodonium (2,2′,3,3′,5,5′,6,6′-octafluoro-4″-vinyl-[1,1′:4′,1″-terphenyl]-4-yl)tris(2,3,5,6-tetrafluoro-4-(trifluoromethyl)phenyl)borate [Compound 2]
Dissolved: Solubility in Acetone | Solubility in Dichloromethane | Solubility in Toluene

(4-isopropylphenyl) (p-tolyl)iodonium (2,3,5,6-tetrafluoro-4′-vinyl-[1,1′-biphenyl]-4-yl)tris(2,3,5,6-tetrafluoro-4-(trifluoromethyl)phenyl)borate [Compound 1]
Dissolved: Solubility in Acetone | Solubility in Dichloromethane | Solubility in Toluene
